Laboratory results taken from ChEMBL document CHEMBL4680180, “Discovery of 3-((dimethylamino)methyl)-4-hydroxy-4-(3-methoxyphenyl)-N-phenylpiperidine-1-carboxamide as novel potent analgesic” (2020).

Sequences of proteins named here, by UniProt entry; tags and fusion partners are left off. A change or cut given only in a name is not applied to a line headed by its entry.
UniProt P33533, whole entry, looked up: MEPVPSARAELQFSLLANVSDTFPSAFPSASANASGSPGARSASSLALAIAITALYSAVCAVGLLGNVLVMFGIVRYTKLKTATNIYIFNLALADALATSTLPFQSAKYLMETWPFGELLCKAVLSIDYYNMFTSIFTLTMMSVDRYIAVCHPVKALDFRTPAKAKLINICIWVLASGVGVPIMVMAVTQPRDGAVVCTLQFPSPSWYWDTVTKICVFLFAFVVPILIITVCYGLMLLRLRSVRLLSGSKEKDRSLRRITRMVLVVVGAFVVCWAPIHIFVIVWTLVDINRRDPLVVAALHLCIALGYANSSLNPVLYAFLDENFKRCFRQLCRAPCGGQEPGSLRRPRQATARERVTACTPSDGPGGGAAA
UniProt P41145: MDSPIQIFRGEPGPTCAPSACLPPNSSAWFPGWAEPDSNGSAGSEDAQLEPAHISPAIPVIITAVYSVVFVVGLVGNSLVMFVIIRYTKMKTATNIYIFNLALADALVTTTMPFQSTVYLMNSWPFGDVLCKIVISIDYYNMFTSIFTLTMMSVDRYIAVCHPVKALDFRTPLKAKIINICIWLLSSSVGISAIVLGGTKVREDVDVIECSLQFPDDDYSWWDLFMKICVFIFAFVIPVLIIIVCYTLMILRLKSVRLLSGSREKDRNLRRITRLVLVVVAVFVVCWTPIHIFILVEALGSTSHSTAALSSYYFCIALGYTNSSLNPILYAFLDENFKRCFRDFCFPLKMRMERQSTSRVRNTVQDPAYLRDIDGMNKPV
UniProt P33535, whole entry, looked up: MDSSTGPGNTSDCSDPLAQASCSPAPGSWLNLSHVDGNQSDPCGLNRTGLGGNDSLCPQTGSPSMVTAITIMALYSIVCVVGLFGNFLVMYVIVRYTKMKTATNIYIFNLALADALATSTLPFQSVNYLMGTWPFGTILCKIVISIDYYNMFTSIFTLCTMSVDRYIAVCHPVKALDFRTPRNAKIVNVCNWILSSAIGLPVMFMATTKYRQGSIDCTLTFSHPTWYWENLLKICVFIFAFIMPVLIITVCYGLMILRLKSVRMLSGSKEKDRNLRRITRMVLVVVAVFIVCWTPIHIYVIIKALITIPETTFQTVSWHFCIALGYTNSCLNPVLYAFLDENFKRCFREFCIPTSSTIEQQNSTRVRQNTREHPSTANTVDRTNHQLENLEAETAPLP

Tests used:
[1] = biological target: T1, Delta-type opioid receptor (Rattus norvegicus, UniProt P33533); experiment: Agonist activity at rat delta opioid receptor expressed in CHO cells incubated for 1 hr by [35S]GTPgammaS binding based liquid scintillation counting method
[2] = biological target: T2, Kappa-type opioid receptor (Homo sapiens, UniProt P41145); experiment: Agonist activity at human kappa opioid receptor expressed in CHO cells incubated for 1 hr by [35S]GTPgammaS binding based liquid scintillation counting method
Mu-type opioid receptor [3] = biological target: T3, Mu-type opioid receptor (Rattus norvegicus, UniProt P33535); experiment: Agonist activity at rat mu opioid receptor expressed in CHO cells incubated for 1 hr by [35S]GTPgammaS binding based liquid scintillation counting method
[4] = biological target: T2, Kappa-type opioid receptor; experiment: Displacement of [3H]-U69593 from human kappa opioid receptor expressed in CHO cells incubated for 30 mins by liquid scintillation counting method
Mu-type opioid receptor [5] = biological target: T3, Mu-type opioid receptor; experiment: Displacement of [3H]-DAMGO from rat mu opioid receptor expressed in CHO cells incubated for 30 mins by liquid scintillation counting method
[6] = biological target: T1, Delta-type opioid receptor; experiment: Displacement of [3H]-DPDPE from rat delta opioid receptor expressed in CHO cells incubated for 30 mins by liquid scintillation counting method

SMILES | EC50 [1] | EC50 [2] | EC50 (Mu-type opioid receptor [3]) | Ki [4] | Ki (Mu-type opioid receptor [5]) | Ki [6]
CN(C)C[C@H]1CCCC[C@]1(O)c1cccc(O)c1 | Not Active | Not Active | – | – | – | –
CN(C)CC1CN(C(=O)Nc2ccccc2)CCC1(O)c1cccc(O)c1 (stereo not drawn) | 112 nM | 110 nM | 2.3 nM | 71.4 nM | 1.2 nM | 104 nM
C[C@@H](NC(=O)[C@@H](N)Cc1ccc(O)cc1)C(=O)NCC(=O)N(C)[C@@H](Cc1ccccc1)C(=O)NCCO | Not Active | Not Active | – | – | – | –
CC1(C)SSC(C)(C)[C@@H](NC(=O)[C@@H](N)Cc2ccc(O)cc2)C(=O)NCC(=O)N[C@@H](Cc2ccccc2)C(=O)N[C@H]1C(=O)O | – | Not Active | Not Active | – | – | –
CN(C)CC1CN(C(=O)Nc2cccc(Cl)c2)CCC1(O)c1ccccc1 (stereo not drawn) | – | – | – | 719 nM | 14.1 nM | 537 nM
CN(C)CC1CN(C(=O)Nc2ccccc2)CCC1(O)c1ccccc1 (stereo not drawn) | – | – | – | 49.1 nM | 7.3 nM | 849 nM
